Measured values from PubChem BioAssay AID1467 (National Center for Advancing Translational Sciences (NCATS), 2008).
The entries are a selection whose mix differs from that of the whole data set. Some of these compounds have results that are not shown, active ones among them. Active and inactive are the calls of the source. Calls follow the shape of the dose curve; as a rule, active = well fitted curve in the direction sought with a large enough effect; inconclusive = small, poorly fitted or top-dose-only effect, or effect the other way, or another doubt; inactive = no such curve, though single readings can be large or run the other way.

By UniProt entry, the sequences of proteins in these tests, tags left out.
UniProt P06280, whole entry: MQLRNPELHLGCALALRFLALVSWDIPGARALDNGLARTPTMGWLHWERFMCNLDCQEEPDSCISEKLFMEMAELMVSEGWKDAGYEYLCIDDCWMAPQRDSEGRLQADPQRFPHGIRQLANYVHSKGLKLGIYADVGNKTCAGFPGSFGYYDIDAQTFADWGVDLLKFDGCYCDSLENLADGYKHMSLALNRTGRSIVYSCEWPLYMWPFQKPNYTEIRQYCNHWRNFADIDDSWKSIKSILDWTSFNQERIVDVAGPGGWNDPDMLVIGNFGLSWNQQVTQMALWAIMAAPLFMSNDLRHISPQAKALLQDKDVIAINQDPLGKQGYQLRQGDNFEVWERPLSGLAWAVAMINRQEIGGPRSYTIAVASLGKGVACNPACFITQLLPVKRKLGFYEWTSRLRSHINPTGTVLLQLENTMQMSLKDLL

Each compound was assayed against Alpha-galactosidase A (Homo sapiens) (UniProt P06280) (assay: qHTS Assay for Inhibitors of Human alpha-Galactosidase at pH 4.5.). Details: purified enzyme, 4-MU-alpha-Gal fluorescence; at 105 µM (top of the series).
From the text: NIH Chemical Genomics Center [NCGC]
NIH Molecular Libraries Probe Production centers Network [MLPCN]
Assay Submitter (PI): Wei Zheng
Alpha-galactosidase is a homodimeric glycoprotein that hydrolyzes the terminal alpha-galactosyl moieties from glycolipids and glycoproteins. Deficiency of this enzyme results in Fabry Disease with progressive accumulation of globotriaosylceramide and other glycosphingolipids in vascular endothelial cells that causes renal failure, myocardial infarction and stroke, and premature death in patients. It has been reported that the improper folding and trafficking of alpha-galactosidase resulting from the genetic mutations may account for a significant numbers of Fabry patients. […] We optimized this alpha-galactosidase assay in 1536-well plate format for identifying the novel small molecule inhibitors with the structures other than the sugar analogs in order to develop the new pharmacological chaperones. Although this assay has the same protocol as PubChem AID 992, this is a separate project and, therefore, is published as a separate assay
NCGC Assay Protocol Summary:
This is a fluorogenic enzyme assay with 4-Methylumbelliferyl alpha-D-galactopyranoside as the substrate and human […] as the enzyme preparation. Upon the hydrolysis of this fluorogenic substrate, the resulting product, […]. 4-Methyllumbelliferone, can be excited at 365 nm and emits at 440 nm. This fluorescence which can be detected by a standard fluorescence plate reader. Data were normalized to the controls for basal activity (without enzyme) and 100% activity (with enzyme). In the AC50 values were determined from concentration-response data modeled with the standard Hill equation.
Assay buffer: 50 mM citric acid (titrated with potassium phosphate to pH 4.5), 0.005% Tween-20, pH 4.5. (pH 4.5 is an optimal condition for this enzyme assay)
1536-well assay protocol for the human alpha-galactosidase:
(1) Add 2 ul/well of enzyme (12 nM final)
(2) Add 23 nL compounds in DMSO solution. The final titration was 0.7 nM to 77 uM.
(3) Add 1 ul of substrate (400 uM final)
(4) Incubate at room temperature for 20 min.
(5) Add 2 ul stop solution (1M NaOH and 1M Glycine mixture, pH 10)
(6) Detect the assay plate in a ViewLux plate reader (PerkinElmer) with Ex=365 nm and Em=440nm.
Keywords: MLSMR, MLPCN, NIH Roadmap, qHTS, NCGC, : Alpha-galactosidase, Fabry Disease, pharmacological chaperone, chaperone therapy
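Also: 0% = full activity with enzyme and -100% = basal without enzyme.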

Row | SMILES | activity change, negative = inhibition
1 | C=CCN1CCN(CCOC(=O)C(O)(c2ccccc2)c2ccccc2)CC1 | inactive: 4.81%
2 | CCN1CCCC(OC(=O)C2(O)c3ccccc3C=Cc3ccccc32)C1 (stereo unspecified) | inactive: 1.24%
3 | CN(C)C1CCCC1OC(=O)C(O)(c1ccccc1)c1ccccc1 (stereo unspecified) | inactive: 0.64%
4 | Cc1ccccc1C(=O)NCC1(N2CCCCC2)CCCCC1 | inactive: -6.99%
5 | CC(C)N1C(=O)CC2(CCN(CCOC(=O)C(O)(c3ccccc3)c3ccccc3)CC2)C1=O | inactive: -1.35%
6 | CCN(CC)CC(C)C(C)OC(=O)C(O)(c1ccccc1)c1ccccc1 (stereo unspecified) | inactive: -6.47%
7 | O=C(NCC1(N2CCCCC2)CCCCC1)c1cc([N+](=O)[O-])ccc1Cl | inactive: -11.7%
8 | COc1ccc(Br)c(C(=O)NCC2(N3CCCCC3)CCCCC2)c1 | inactive: -5.42%
9 | CN(C)c1cccc(C(=O)NCC2(N(C)C)CCCCC2)c1 | inactive: -1.89%
10 | O=C(OC1CN2CCC1CC2)C(CO)(c1ccccc1)c1ccccc1 (stereo unspecified) | inactive: 8.31%
11 | COc1cccc(C(=O)NCC2(N3CCCCC3)CCCCC2)c1 | inactive: -28%
